# Tested on: Melanoma UISO-Mel-2
# Conditions: several concentrations, 24 h
sequence,measurement,value
VRIKLSTPGVYGVYCE [Plc 70-84],"dose dependence of cytotoxicity, melanoma UISO-Mel-2",increasing peptide concentrations led to increasing cytotoxicity
